Results taken from patent US12378248B2.

Key:
wild-type C57BL/6J mice [1] = test: Hypothermia (Tb by telemetry) after ip dosing; settings: 1 mg/kg ip; average from dosing to 60 min; mean±SD
wild-type C57BL/6J mice [2] = test: Locomotor activity by telemetry after ip dosing; settings: 1 mg/kg ip; average from dosing to 60 min; mean±SD
wild-type C57BL/6J mice [3] = settings: 1 mg/kg ip; marked with reference 30; cited from earlier work

## OC[C@H]1O[C@@H](n2cnc3c(NC4CCCC4)ncnc32)[C@H](O)[C@@H]1O
wild-type C57BL/6J mice [1]
  Tb (° C.): 32.4 ± 0.5 °C
wild-type C57BL/6J mice [2]
  Activity (counts): 1.5 ± 0.5 counts
wild-type C57BL/6J mice [3]
  ARs causing hypothermia: A3AR > A1AR^30
